Some results are limits rather than exact numbers.

By UniProt entry, the sequences of proteins in these tests, tags left out. Residues count along the entry.
UniProt P29597, whole entry: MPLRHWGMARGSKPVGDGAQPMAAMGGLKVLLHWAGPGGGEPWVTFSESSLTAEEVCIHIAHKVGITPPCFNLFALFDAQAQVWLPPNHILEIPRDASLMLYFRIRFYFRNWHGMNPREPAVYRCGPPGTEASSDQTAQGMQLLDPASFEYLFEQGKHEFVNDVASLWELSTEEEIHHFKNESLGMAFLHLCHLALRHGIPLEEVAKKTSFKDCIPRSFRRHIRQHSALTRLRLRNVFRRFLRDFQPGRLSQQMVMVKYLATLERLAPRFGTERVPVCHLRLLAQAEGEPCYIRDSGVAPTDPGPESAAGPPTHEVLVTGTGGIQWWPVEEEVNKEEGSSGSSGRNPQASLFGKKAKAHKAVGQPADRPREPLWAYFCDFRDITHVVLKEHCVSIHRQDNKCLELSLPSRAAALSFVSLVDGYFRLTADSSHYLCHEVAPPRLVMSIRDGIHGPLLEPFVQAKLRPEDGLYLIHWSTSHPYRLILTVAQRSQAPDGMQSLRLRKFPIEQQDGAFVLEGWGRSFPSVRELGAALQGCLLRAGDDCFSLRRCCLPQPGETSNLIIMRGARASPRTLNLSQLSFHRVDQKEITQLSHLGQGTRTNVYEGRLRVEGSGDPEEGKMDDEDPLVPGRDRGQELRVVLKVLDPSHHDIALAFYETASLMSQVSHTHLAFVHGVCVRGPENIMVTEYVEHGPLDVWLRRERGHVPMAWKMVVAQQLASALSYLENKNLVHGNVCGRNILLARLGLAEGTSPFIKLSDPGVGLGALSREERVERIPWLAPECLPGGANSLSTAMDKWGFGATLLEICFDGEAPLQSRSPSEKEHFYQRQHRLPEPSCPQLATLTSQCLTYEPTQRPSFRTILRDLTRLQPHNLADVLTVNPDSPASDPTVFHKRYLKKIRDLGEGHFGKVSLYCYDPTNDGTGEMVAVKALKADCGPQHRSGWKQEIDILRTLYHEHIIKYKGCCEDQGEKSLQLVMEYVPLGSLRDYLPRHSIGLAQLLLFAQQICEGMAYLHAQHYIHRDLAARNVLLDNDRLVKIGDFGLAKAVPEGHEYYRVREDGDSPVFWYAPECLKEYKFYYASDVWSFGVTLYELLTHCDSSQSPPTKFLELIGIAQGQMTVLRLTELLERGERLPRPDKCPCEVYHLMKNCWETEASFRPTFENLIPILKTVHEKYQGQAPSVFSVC
UniProt P29597, 589-875 limits assumed: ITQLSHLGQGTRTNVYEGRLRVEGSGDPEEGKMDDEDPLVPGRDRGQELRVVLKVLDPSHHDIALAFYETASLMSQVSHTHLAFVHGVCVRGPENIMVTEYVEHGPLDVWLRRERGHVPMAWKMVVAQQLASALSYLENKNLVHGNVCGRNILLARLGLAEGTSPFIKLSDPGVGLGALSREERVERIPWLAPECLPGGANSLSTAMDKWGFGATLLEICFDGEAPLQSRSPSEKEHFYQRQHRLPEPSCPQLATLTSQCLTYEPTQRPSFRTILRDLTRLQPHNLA
UniProt P29597, 897-1176 limits assumed: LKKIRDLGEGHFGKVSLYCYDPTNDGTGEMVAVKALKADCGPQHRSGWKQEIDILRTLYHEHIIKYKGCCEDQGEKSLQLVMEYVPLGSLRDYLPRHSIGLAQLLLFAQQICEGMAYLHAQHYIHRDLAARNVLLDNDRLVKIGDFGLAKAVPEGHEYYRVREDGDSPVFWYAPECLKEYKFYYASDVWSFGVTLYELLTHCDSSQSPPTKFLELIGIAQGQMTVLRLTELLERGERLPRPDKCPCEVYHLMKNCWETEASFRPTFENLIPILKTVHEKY
UniProt P23458, whole entry partner: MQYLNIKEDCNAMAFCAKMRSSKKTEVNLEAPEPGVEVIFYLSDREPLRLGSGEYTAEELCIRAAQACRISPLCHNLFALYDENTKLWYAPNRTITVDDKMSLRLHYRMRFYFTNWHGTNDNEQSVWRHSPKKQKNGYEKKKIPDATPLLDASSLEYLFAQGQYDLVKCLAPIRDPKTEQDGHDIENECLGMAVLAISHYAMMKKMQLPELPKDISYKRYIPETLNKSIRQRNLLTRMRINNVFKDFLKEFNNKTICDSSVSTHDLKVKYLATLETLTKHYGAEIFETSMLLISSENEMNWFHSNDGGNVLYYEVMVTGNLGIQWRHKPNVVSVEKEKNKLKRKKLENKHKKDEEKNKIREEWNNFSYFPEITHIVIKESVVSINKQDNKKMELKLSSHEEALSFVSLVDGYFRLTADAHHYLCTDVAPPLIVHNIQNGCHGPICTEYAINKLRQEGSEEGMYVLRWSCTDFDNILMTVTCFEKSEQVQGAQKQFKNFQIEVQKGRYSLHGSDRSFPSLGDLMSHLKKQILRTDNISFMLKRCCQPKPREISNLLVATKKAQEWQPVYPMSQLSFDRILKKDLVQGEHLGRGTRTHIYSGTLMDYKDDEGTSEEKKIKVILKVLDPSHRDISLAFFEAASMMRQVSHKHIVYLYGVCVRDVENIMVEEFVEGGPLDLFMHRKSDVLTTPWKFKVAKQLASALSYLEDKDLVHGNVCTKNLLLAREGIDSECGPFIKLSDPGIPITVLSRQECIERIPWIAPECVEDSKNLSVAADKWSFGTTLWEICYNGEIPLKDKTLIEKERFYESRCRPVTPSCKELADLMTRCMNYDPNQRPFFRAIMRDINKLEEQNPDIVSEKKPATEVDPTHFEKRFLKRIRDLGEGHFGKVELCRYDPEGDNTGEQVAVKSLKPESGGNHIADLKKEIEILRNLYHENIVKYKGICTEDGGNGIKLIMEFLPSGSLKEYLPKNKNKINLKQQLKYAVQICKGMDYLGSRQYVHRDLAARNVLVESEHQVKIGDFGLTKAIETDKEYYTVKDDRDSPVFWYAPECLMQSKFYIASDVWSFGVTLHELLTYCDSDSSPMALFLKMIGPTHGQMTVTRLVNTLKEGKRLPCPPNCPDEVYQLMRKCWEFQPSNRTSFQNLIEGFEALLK
UniProt P23458, 875-1153 limits assumed: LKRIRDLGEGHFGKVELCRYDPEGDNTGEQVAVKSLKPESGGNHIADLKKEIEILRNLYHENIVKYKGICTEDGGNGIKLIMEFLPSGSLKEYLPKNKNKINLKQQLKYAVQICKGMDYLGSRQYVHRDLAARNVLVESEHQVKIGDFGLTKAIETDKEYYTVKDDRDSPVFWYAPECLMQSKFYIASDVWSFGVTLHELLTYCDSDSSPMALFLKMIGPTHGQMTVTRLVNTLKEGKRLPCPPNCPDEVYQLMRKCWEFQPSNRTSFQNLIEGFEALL
UniProt O60674, 849-1124 limits assumed: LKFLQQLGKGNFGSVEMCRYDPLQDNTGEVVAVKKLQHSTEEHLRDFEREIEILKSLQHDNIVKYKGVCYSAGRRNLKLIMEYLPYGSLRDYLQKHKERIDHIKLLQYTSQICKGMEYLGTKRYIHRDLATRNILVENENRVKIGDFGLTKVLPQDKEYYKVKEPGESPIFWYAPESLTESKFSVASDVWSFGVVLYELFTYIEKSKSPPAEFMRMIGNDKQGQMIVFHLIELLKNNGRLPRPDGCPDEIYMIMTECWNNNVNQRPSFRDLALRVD
UniProt P52333, 822-1111 limits assumed: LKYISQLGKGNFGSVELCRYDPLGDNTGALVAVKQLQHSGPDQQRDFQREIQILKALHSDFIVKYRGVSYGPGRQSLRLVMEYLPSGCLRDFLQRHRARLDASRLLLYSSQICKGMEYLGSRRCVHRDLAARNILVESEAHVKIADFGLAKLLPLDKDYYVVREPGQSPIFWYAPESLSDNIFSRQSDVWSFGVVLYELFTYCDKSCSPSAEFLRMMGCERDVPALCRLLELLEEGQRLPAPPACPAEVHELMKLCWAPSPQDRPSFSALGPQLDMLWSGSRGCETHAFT

For the first experiment, the target named is TYK2/JAK1 (Homo sapiens, UniProt P29597). The experiment can be described thus: TYK2/JAK1 cell activity by IFNα2B stimulation, SEAP reporter in HEK-blue IFNα/β cells. The note with it: HEK-blue IFNα/β cell line, human IFNα2B 1 U/mL, 24 hours, SEAP absorbance at 630 nm. How it is done: Experimental Example 3: Analysis of TYK2/JAKI cell activity by IFNα2B stimulation
An inhibition effect of TYK2/JAK1 activity of the test compound was analyzed using HEK-blue IFNα/β cell line (InvivoGen) that secretes SEAP (Secreted embryonic alkaline phosphatase) depending on the degree of cell stimulation. Cell culture and evaluation were performed according to the manufacturer's recommendations, and the method thereof is as follows: Cells cultured in a growth medium (Dulbecco's Modified Eagle Medium, 10% Fetal bovine serum, 1% Penicillin-Streptomycin, 100 ug/mL Normocin, 10 mg/mL Blasticidin, […] Zeocin) were collected and resuspended in a test medium (DMEM, 10% FBS, 1% Penicillin-Streptomycin), and 3.5x10^4 cells (160 uL) were dispensed into each well of a 96-well plate. After culturing for 24 hours in a 37°C CO2 incubator, 20 uL of a test compound or control compound (Deucravacitinib) diluted in the test medium was added, and then incubated at 37°C for 1 hour and 30 minutes. Next, 20 uL of human IFNα2B recombinant protein (PBL assay science) prepared with the test medium was added to each well (final concentration 1 U/mL) and then incubated at 37°C for 24 hours. 20 uL and 180 uL of cell supernatant were mixed with a QUANTI-blue reagent (InvivoGen) and then reacted at 37°C for 20-30 minutes. An absorbance at 630 nm was measured using Synergy neo (BioTek Instruments, Inc.). […] [Table 3] Result of TYK2/JAK1 cell activity by IFNα2B stimulation test
As for `CC(=O)Nc1cc2c(-c3cc(OCC(C)C)c(=O)n([C@@H](C)C(F)(F)F)n3)cn(C)c2cn1`, the IC50 was less than 0.05 µM.
On the same count and under the same terms, in the case of `CC(=O)Nc1cc2c(-c3cc(OCC(C)C)c(=O)n(C(C)C)n3)cn(C3CCC3)c2cn1` it was less than 0.05 µM; in that of `CC(=O)Nc1cc2c(-c3cc(OCC(C)C)c(=O)n(C(C)C(F)(F)F)n3)cn(C3CCC3)c2cn1` (stereo not drawn), less than 0.05 µM.
On the same count and under the same terms, under `CC(C)COc1cc(-c2cn(C3CCC3)c3cnc(NC(N)=O)cc23)nn(C(C)C)c1=O` stands less than 0.05 µM; under `CCn1cc(-c2cc(OCC(C)(F)F)c(=O)n([C@@H](C)C(F)(F)F)n2)c2cc(NC(C)=O)ncc21`, less than 0.05 µM.

The next experiment concerns the target JAK1 JH1 (Homo sapiens, UniProt P23458). The experiment can be described thus: JAK kinase domain activity, ADP-Glo kinase assay, JAK1. The note with it: read-out: JAK1 JH1 IC50, substrate IRS1 (Y608) peptide, top concentration 10000 nM. The method, then: (§1) Experimental Example 2: JAK Kinase Domain Activity Analysis
(§2) Kinase domain activity of the JAK family was analyzed using the ADP-Glo kinase assay kit (Promega). The evaluation of the compound was performed according to the manufacturer's protocol, and the method thereof is as follows:
(§3) A 10 mM test compound was diluted to 0.5 mM using DMSO in a 96-well plate, and then 5-fold serial dilutions were performed in DMSO. The diluted compound was diluted to 1/10 with 1x reaction buffer (composition) to prepare a 5x compound solution. 5 uL of the 5x compound solution was mixed with a substrate prepared in the reaction buffer (40 mM Tris, 20 mM MgCl2 and 0.1 mg/ml BSA, 0.05 mM DTT, pH 7.5), and an ATP mixture (10 uL). Next, an enzyme reaction was initiated by adding the JAK family enzyme (10 uL) prepared in the reaction buffer. A short rotation was performed to settle all the solution to the bottom of the plate. The final concentrations of the test compounds in the reaction mixture were 10000, 2000, 400, 80, 16, and 3.2 nM. The concentrations of the control compounds (Brepocitinib or Tofacitinib) were 10 times lower. The enzyme reaction was performed at 25°C for 1 hour. 25 uL of ADP-Glo reagent was added and the reaction was performed at 25 °C for 1 hour. The reaction mixed 50 uL of kinase detection reagent and was stopped, and a luminescence signal was measured using Synergy neo (BioTek Instruments, Inc.). […]
(In general: ADP-Glo turns the ADP formed in a reaction into a luminescent signal.)
As to `CC(=O)Nc1cc2c(-c3cc(OCC(C)C)c(=O)n([C@@H](C)C(F)(F)F)n3)cn(C)c2cn1`, the IC50 was 4.03 µM.
The same measure, in the same setting: under `CC(=O)Nc1cc2c(-c3cc(OCC(C)C)c(=O)n(C(C)C)n3)cn(C3CCC3)c2cn1` stands greater than 10 µM.
The same measure, in the same setting: in the case of `CC(=O)Nc1cc2c(-c3cc(OCC(C)C)c(=O)n(C(C)C(F)(F)F)n3)cn(C3CCC3)c2cn1` (stereo not drawn) it was greater than 10 µM.
Still for that read-out and setting: under `CC(C)COc1cc(-c2cn(C3CCC3)c3cnc(NC(N)=O)cc23)nn(C(C)C)c1=O` stands greater than 10 µM; under `CCn1cc(-c2cc(OCC(C)(F)F)c(=O)n([C@@H](C)C(F)(F)F)n2)c2cc(NC(C)=O)ncc21`, greater than 10 µM.

For another experiment, the target named is JAK2 JH1 (Homo sapiens, UniProt O60674). The experiment can be described thus: JAK kinase domain activity, ADP-Glo kinase assay, JAK2. The note with it: read-out: JAK2 JH1 IC50, substrate IGF1R peptide, top concentration 10000 nM. How it is done: as §1, §2, §3
For the molecule `CC(=O)Nc1cc2c(-c3cc(OCC(C)C)c(=O)n([C@@H](C)C(F)(F)F)n3)cn(C)c2cn1`, the IC50 came out at 1.89 µM.
Still for that read-out and setting: in the case of `CC(=O)Nc1cc2c(-c3cc(OCC(C)C)c(=O)n(C(C)C)n3)cn(C3CCC3)c2cn1` it was greater than 10 µM; in that of `CC(=O)Nc1cc2c(-c3cc(OCC(C)C)c(=O)n(C(C)C(F)(F)F)n3)cn(C3CCC3)c2cn1` (stereo not drawn), greater than 10 µM.
The same measure, in the same setting: under `CC(C)COc1cc(-c2cn(C3CCC3)c3cnc(NC(N)=O)cc23)nn(C(C)C)c1=O` stands 9.15 µM; under `CCn1cc(-c2cc(OCC(C)(F)F)c(=O)n([C@@H](C)C(F)(F)F)n2)c2cc(NC(C)=O)ncc21`, greater than 10 µM.

Another experiment concerns the target JAK3 JH1 (Homo sapiens, UniProt P52333). The experiment can be described thus: JAK kinase domain activity, ADP-Glo kinase assay, JAK3. The conditions noted are these: read-out: JAK3 JH1 IC50, substrate Poly (4:1 Glu-Tyr) peptide, top concentration 10000 nM. The method, then: as §1, §2, §3
For `CC(=O)Nc1cc2c(-c3cc(OCC(C)C)c(=O)n([C@@H](C)C(F)(F)F)n3)cn(C)c2cn1`, the IC50 was greater than 10 µM.
Same read-out and setting: under `CC(=O)Nc1cc2c(-c3cc(OCC(C)C)c(=O)n(C(C)C)n3)cn(C3CCC3)c2cn1` stands greater than 10 µM; under `CC(=O)Nc1cc2c(-c3cc(OCC(C)C)c(=O)n(C(C)C(F)(F)F)n3)cn(C3CCC3)c2cn1` (stereo not drawn), greater than 10 µM; under `CC(C)COc1cc(-c2cn(C3CCC3)c3cnc(NC(N)=O)cc23)nn(C(C)C)c1=O`, greater than 10 µM.
Consider `CCn1cc(-c2cc(OCC(C)(F)F)c(=O)n([C@@H](C)C(F)(F)F)n2)c2cc(NC(C)=O)ncc21`, for which the IC50 was greater than 10 µM.

Another experiment addresses TYK2 pseudokinase domain (Homo sapiens, UniProt P29597). The experiment can be described thus: TYK2 JH2 pseudokinase domain binding affinity, fluorescence polarization (BPS Bioscience inhibitor screening kit). The conditions noted are these: read-out: TYK2 JH2 IC50; polarized fluorescence, 25°C, 1 hour. The method, then: Experimental Example 1: Analysis of domain binding affinity to TYK2 pseudokinase
In order analyze the binding affinity of a test compound to the TYK2 pseudokinase domain, a polarized fluorescence-based TYK2 JH2 Pseudokinase Domain Inhibitor Screening Assay Kit (BPS bioscience) was used. The evaluation of the compound was performed according to the manufacturer's protocol, and the method thereof is as follows:
The test compound or control compound (Deucravacitnib) was serially diluted in DMSO, and then diluted 1/10 with distilled water to prepare 10x compound solution. After mixing the compound solution with Probe 1 prepared with a binding reaction buffer (JH2 binding buffer), a reaction was performed at 25°C for 10 minutes. Next, the reaction was initiated by adding a TYK2 pseudokinase domain enzyme prepared with the binding reaction buffer. The reaction was performed in a black 384-well plate at 25 °C for 1 hour. Polarized fluorescence was measured using Synergy neo (BioTek Instruments, Inc.).
In the case of `CC(=O)Nc1cc2c(-c3cc(OCC(C)C)c(=O)n([C@@H](C)C(F)(F)F)n3)cn(C)c2cn1`, the IC50 stood at 0.043 µM.
`CC(=O)Nc1cc2c(-c3cc(OCC(C)C)c(=O)n(C(C)C)n3)cn(C3CCC3)c2cn1`: the IC50 was determined as 0.034 µM.
On the same count and under the same terms, in the case of `CC(=O)Nc1cc2c(-c3cc(OCC(C)C)c(=O)n(C(C)C(F)(F)F)n3)cn(C3CCC3)c2cn1` (stereo not drawn) it was 0.052 µM; in that of `CC(C)COc1cc(-c2cn(C3CCC3)c3cnc(NC(N)=O)cc23)nn(C(C)C)c1=O`, 0.026 µM; in that of `CCn1cc(-c2cc(OCC(C)(F)F)c(=O)n([C@@H](C)C(F)(F)F)n2)c2cc(NC(C)=O)ncc21`, 0.022 µM.

The target in a further experiment is TYK2 JH1 (Homo sapiens, UniProt P29597). In words: JAK kinase domain activity, ADP-Glo kinase assay, TYK2. The conditions noted are these: read-out: TYK2 JH1 IC50, substrate IRS1 (Y608) peptide, top concentration 10000 nM. The method, then:
as §1, §2, §3
For the molecule `CC(=O)Nc1cc2c(-c3cc(OCC(C)C)c(=O)n([C@@H](C)C(F)(F)F)n3)cn(C)c2cn1`, the IC50 stood at 4.65 µM.
On the same count and under the same terms, under `CC(=O)Nc1cc2c(-c3cc(OCC(C)C)c(=O)n(C(C)C)n3)cn(C3CCC3)c2cn1` stands 10 µM; under `CC(=O)Nc1cc2c(-c3cc(OCC(C)C)c(=O)n(C(C)C(F)(F)F)n3)cn(C3CCC3)c2cn1` (stereo not drawn), greater than 10 µM; under `CC(C)COc1cc(-c2cn(C3CCC3)c3cnc(NC(N)=O)cc23)nn(C(C)C)c1=O`, greater than 10 µM.
For `CCn1cc(-c2cc(OCC(C)(F)F)c(=O)n([C@@H](C)C(F)(F)F)n2)c2cc(NC(C)=O)ncc21`, the IC50 was greater than 10 µM.

The values are drawn from patent EP4831173A1, “TYK2 INHIBITOR AND USE THEROF” (dated 2026).
